Data from patent US10251892B2, “Bicyclic heterocycles as FGFR4 inhibitors” (Incyte Corporation, priority 2015, dated 2019).

Amino acid sequences for entries named in this document (tags omitted). Residues count along the entry.
UniProt P22607, 23-806 limits assumed: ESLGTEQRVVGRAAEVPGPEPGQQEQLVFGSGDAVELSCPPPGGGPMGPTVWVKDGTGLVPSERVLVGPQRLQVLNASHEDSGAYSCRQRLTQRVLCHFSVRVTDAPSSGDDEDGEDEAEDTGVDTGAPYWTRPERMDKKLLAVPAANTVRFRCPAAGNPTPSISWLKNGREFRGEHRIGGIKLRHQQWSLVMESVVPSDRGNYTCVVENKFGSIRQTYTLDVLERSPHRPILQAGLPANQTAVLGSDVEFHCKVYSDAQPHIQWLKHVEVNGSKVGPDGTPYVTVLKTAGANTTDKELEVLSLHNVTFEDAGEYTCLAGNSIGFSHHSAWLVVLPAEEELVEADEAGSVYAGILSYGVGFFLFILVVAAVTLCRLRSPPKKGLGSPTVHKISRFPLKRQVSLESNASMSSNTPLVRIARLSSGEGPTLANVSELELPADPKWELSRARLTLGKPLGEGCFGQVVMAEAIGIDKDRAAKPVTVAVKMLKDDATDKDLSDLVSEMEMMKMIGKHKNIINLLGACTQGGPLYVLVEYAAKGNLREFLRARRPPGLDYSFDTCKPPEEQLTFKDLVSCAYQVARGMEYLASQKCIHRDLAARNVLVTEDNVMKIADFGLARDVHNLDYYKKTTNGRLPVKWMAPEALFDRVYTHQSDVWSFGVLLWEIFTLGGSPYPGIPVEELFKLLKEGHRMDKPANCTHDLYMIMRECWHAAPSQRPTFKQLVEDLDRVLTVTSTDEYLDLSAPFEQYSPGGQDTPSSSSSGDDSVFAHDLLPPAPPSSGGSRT

Target: FGFR3 enzyme (Homo sapiens (Human), UniProt P22607)
Test: FGFR Enzymatic Assay (peptide phosphorylation, FRET), FGFR3
Format: biochemical
Details: IC50 ratio showing FGFR3 selectivity; pre-incubated for 4 hours

COc1cc(OC)c(F)c(N2Cc3cnc(-c4cn(C)nc4C)cc3N(c3cnn(C)c3)C2=O)c1F
FGFR1/FGFR3: >10 | FGFR4/FGFR3: >10
